The record followed here is ChEMBL document CHEMBL1156086, “Discovery and optimization of CRTH2 and DP dual antagonists” (Bioorg Med Chem Lett, 2009).

A word on the IC50: it is the point on the concentration scale where inhibition reaches its midpoint.

For the assay, the target named is T1, Chemoattractant receptor-homologous molecule expressed on Th2 cells (Cavia porcellus, UniProt Q56D28).
T1 sequence (Q56D28 whole entry): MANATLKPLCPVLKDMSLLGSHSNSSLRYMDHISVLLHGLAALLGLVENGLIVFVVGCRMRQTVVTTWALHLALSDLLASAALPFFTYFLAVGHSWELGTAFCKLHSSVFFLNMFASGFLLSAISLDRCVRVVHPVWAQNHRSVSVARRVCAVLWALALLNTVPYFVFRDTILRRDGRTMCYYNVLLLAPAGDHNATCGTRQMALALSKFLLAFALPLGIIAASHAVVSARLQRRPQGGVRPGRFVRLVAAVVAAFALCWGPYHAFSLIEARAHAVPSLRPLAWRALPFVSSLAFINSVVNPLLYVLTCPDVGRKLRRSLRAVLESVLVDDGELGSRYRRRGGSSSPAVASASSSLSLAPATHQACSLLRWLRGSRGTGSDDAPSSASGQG
Briefly: Displacement of [3H]-PGD2 from guinea pig CRTH2 receptor expressed in HEK293 cells. The class given is cell-based. A general note: Displacement assays read how much labelled ligand stays bound in the presence of the test substance.

In turn, `CCCCNC(=O)c1ccc(Oc2ccc(CC(=O)O)cc2OC)c(NS(=O)(=O)c2ccc(Cl)cc2Cl)c1` registered an IC50 of 3 nM.
